Laboratory results as given in patent US11117865B2, “Inhibitors of bromodomain-containing protein 4 (BRD4)” (Board of Regents, The University Of Texas System, priority 2016, dated 2021).

Target: BRDT (BD1) (Homo sapiens (Human), UniProt Q58F21)
Test: Bromodomain binding affinity

COc1cc(OC)c2c(=O)cc(-c3cc(C)c(OC[C@H](O)CN4CCN(C)CC4)c(C)c3)oc2c1 [ZL0516, (R)-2-(4-(2-hydroxy-3-(4-methylpiperazin-1-yl)propoxy)-3,5-dimethylphenyl)-5,7-dimethoxy-4H-chromen-4-one]
IC50: 3.59 µM
